## Binding of CDR-mutated scFvs to a peptide of the spike HR2 region

Values reported by Li et al. 2023, doi:10.1038/s41467-023-39022-2 (FLAb copy).

All variants were tested on one target, the spike HR2 peptide PDVDLGDISGINAS (SARS-CoV-2).

The variants keep the heavy chain, the linker and the frameworks of Ab-14 (scFv order VH, a 15-residue (Gly4Ser)3 linker, VL).
VH: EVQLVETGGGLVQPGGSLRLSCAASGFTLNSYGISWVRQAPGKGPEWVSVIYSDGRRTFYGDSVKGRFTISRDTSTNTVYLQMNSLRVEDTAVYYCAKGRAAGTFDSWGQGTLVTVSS
VL: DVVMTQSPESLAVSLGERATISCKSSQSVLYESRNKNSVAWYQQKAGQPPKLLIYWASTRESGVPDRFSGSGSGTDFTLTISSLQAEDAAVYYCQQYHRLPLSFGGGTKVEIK

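Designed CDR sequences, proposed from the first random library and measured here. Group labels follow the data file (Ctrl: baseline library sampled from a position-specific scoring matrix, with some repeated check sequences; En: ensemble of fine-tuned language models; GP: Gaussian process model; HC: hill climbing; Gen: genetic algorithm; Gibbs: Gibbs sampling; a sequence that several methods proposed may carry one label only). Affinity was read by AlphaSeq, a pooled yeast mating assay with surface-displayed partners. Binding brings cells together so that they mate, and sequencing counts the barcode pairs among the diploids. Each replicate has its own calibration line, from reference interactions of the BCL2 family. There are six technical replicates.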

Each variant is given by its three light chain CDRs, as the data file delimits them; those of the parent are KSSQSVLYESRNKNSVA, WASTRES, QQYHRLPLS. Affinities are written as log10 Kd with Kd in nM; a lower number is a better binder. Averages over replicates are reported, and they cover detected replicates only. "not detected" means that the variant was in the library but no mating with the target was seen in any replicate; the authors take this as a sign of poor binding, and no number exists. The parent sequence was in this pool as ten entries: three were never detected, three once, and four in most replicates, with averages from 0.34 to 2.37. Empty control strains, which show no peptide, gave a signal in 4% of pairings with all light chain designs; the median was 2.64 and 95% of these signals were weaker than 1.59. No background was subtracted. The control count says in how many pairings with the empty strains this scFv gave a signal. The range of this assay differs from that of the first round, and the authors advise against merging the two. In the paper, a design with two or fewer of six values counts as a poor binder. Some sequences occur more than once in the pool; their replicates are pooled.

CDR-L1	CDR-L2	CDR-L3	group	mean log10 Kd (nM)	replicates with signal	empty controls
KLLQTVMNGRYRRNNVA	HMTMRED	QQYFRLPLS	En_HC	2.54	2/6	2/18
KWSQSVLYESVNKNSVA	DASTRES	QQYHRLPLS	GP_HC	0.03	6/6	0/18
HISQMWFLESKNKNNVA	EESTRED	QSYFRLPLS	En_HC	0.76	6/6	0/18
KSSQSMLYESRNKNSVA	DASTRES	QQYHRLPLS	Ctrl	-0.03	6/6	0/18
KSSQSVWYEMRNKNSVA	WASTRES	QQYHRLPLA	Ctrl	1.84	4/6	0/18
KLSQSVQYESRNKNSVA	NASQRES	QQYHRLPLS	GP_Gen	0.36	6/6	0/18
NISHFMDVTAKNINNVA	EMTMREM	QQYHHLPLS	En_Gen	0.46	6/6	0/18
KLSQSVLYESRNSNSVA	EASTRED	QQYHRLPLS	GP_Gen	0.03	6/6	6/18
KLSESVLYDSRNKNSVA	WASTRES	AQYHELPLS	Ctrl	1.13	6/6	2/18
KFSPSVLYESRTKNSVA	NASTRES	QQYHRLPLS	GP_HC	0.57	6/6	0/18
KVSQKDPMGSRNKNSVA	HASLRED	QQYHRLPLS	GP_Gibbs	0.42	6/6	1/18
YVSIDAAEGWNQQSAVA	GVSYKEK	QQYYKLPLS	En_Gibbs	2.52	3/6	0/18
MISDLTMYGSRNVNSVA	DLSTRGQ	QQYHRLPLS	En_HC	-0.15	6/6	0/18
KLSQSDLYESRNKNNVA	HASTRES	QQYHRLPLS	GP_Gen	-0.25	6/6	0/18
KLQQSDLYESRNKNNVA	NATLREQ	QQYHRLPLS	GP_Gibbs	-0.39	6/6	2/18
KFSQSVLYESRNKNSVA	WADTRES	QTYHRLPLS	Ctrl	1.94	2/6	0/18
SIDSAVAYGLQNKKNIA	EEERVDR	QQYAHLPLM	En_Gibbs	not detected	0/6	0/18
KMPQSVLYESRNKNSVA	NASTRES	QQYHRLPLS	GP_Gen	-0.30	6/6	0/18
KIQNFSQEYNKMWNNIA	DMTMKHT	QQYNRLPLE	En_Gibbs	0.15	6/6	3/18
KLSQSYCMGDRNKNSVA	QASTREM	QQYHRLPLS	GP_Gibbs	1.14	6/6	1/18
KVDQSWLYESRNKNSVA	NASTRES	QQYHRLPLS	GP_Gen	-0.04	6/6	0/18
KSSWSVLYESNNVNSVA	HASTRED	QQYHRLPLS	GP_HC	0.73	6/6	2/18
QVFFNLFEQGMRSQPIA	GTSMRET	QQYARLPLI	En_Gibbs	1.11	6/6	0/18
KLSQSVLYESRNKNNVA	MASTRES	QQYHRLPLS	GP_Gen	-0.01	6/6	0/18
HMSMLTLMGSRQRNSVA	QMTTREN	QQYDRLPLM	En_Gen	0.72	6/6	0/18
KFSQMVNSMSVSKSAVA	EMSTRPE	QQYNRLPLS	En_Gen	0.52	6/6	0/18
HITYGMMVAGRHQSSIA	QAEERAK	QQYDRLPLS	En_Gen	1.18	6/6	0/18
KSSQSVGMESRNANSVA	DASTRES	QQYHRLPLS	GP_HC	0.35	6/6	1/18
MVTQMAMTGMTNKRSVA	NAETREN	QQYHRLPLI	En_Gen	0.51	6/6	0/18
KSIQSVLYESRNKNSVA	WASTREM	QQYHGLPLS	Ctrl	not detected	0/6	0/18
IITQSVMSESKNKRNVA	NTSEREP	QQYDRLPLI	En_HC	0.49	6/6	1/18
TISQLMNMGSFAINSVA	QASIRNS	QQYDRLPLM	En_Gen	1.08	6/6	0/18
KVSQSVLGESRNKNSVA	NASTRES	QQYHRLPLS	GP_Gen	-0.09	6/6	1/18
KVSQSEEYESRWKNSVA	NASYRES	QQYHRLPLS	GP_Gibbs	0.24	6/6	2/18
MVTQMAMTGMKNKRSVA	NAETREY	QQYHHLPLI	En_Gen	1.34	6/6	0/18
MLGDVAHGLSRKENSVA	DNDTRNS	QQYDRLPLS	En_Gen	1.14	6/6	1/18
DLTVSDNYGSQLENNIA	QGVEKCE	QQYSRLPLA	En_Gibbs	0.33	6/6	1/18
KLQQSELMEERNSNSVA	HASLRES	QQYHRLPLS	GP_Gibbs	-0.13	6/6	0/18
KQQQSVLYESRNKNNVA	HASTRED	QQYARLPLS	GP_HC	-0.34	6/6	0/18
KLSQSELYESRMKNSVA	NASQRES	QQYHRLPLS	GP_Gen	0.05	6/6	1/18
KVSGSVLYESRNFNSIA	HASTRES	QQYHRLPLS	Ctrl	0.10	6/6	1/18
KVSQSVLYESRNKNSVA	NASTRES	QQYHRLPLL	GP_Gen	0.59	6/6	0/18
KSSQSVLYESENKNSVA	EASVRES	QQYHKLPLS	Ctrl	0.72	6/6	2/18
KMSQEVDLESRNDNSVA	NASCRED	QQYHRLPLS	GP_Gibbs	0.99	6/6	2/18
KLQQSELYESRNKNSVA	NASTRES	QQYHRLPLS	GP_Gen	0.23	6/6	2/18
KSSQSVLYESPNKNSVA	EASTRES	QQYHRLPLS	Ctrl	0.56	6/6	0/18
MISQLYNMGSFAINSVA	QASERNH	QQYDRLPLI	En_Gen	2.51	6/6	0/18
KLSEVAHFESRKKNSVA	ENSTREE	QQYDHLPLS	En_HC	1.82	6/6	1/18
KLPQSELYESRNKNAVA	NASQRES	QQYHRLPLS	GP_Gen	-0.30	6/6	1/18
KLSQSDLYESRNKNSVA	EASERES	QQYHRLPLS	GP_Gen	-0.07	6/6	0/18
KLSMSHGYESRMKNSVA	HASQREE	QQYHRLPLS	GP_Gibbs	0.24	6/6	3/18
KSSQSFLYESRSKNSVA	GASQRES	QQYHRLPLS	GP_HC	0.00	6/6	0/18
KFSQSGLYESRTKNSVA	NAVTRET	QQYHRLPLS	GP_HC	-0.13	6/6	0/18
KESQSWLYESRNKNSVA	GASTRES	QQYHRLPLS	GP_HC	0.40	6/6	1/18
KSSQSVGYESRNKNSVA	WASQRES	QQYHRLPLS	Ctrl	1.51	26/30	1/90
KLQQSYLYESRNKNSVA	NASTRCS	QQYHRLPLS	GP_Gen	-0.11	6/6	0/18
TLSQSMDMTSRNVNSVA	DLETRGN	QQYHRLPLS	En_HC	0.14	6/6	0/18
DMTVQFNGASKIQNSVA	HGVEKID	QQYVRLPLA	En_Gibbs	0.91	6/6	0/18
QLAIDRLQEYKMGAAIA	GKTTRED	QQYARLPLS	En_Gibbs	-0.02	6/6	0/18
SLTSHEEEIEGAEASVA	EASMLES	QQYHRLPLM	En_Gibbs	0.92	6/6	2/18
QIQSESEVDYKDKNSMA	DSECKAA	QQYFRLPLM	En_Gibbs	0.59	6/6	0/18
KLQNFSQEWNKMWNNIA	DMTMKHT	QQYNRLPLE	En_Gibbs	1.16	6/6	2/18
MFSQSVMYGSFMRNSVA	QTSTREQ	QQYDRLPLS	En_HC	0.51	6/6	2/18
MISDTGLHDSRLQNSVA	NNSTREA	QQYHRLPLS	En_HC	2.36	6/6	3/18
KSSQSVLYESRNKTSVA	WSSTRES	QQYHRLPLS	Ctrl	not detected	0/6	0/18
YMSGQIDGGWNQQEAIA	EVTYKED	QQYYQLPLS	En_Gibbs	not detected	0/6	1/18
KLQQSELYESRNKNSVA	GASTRCE	QQYHRLPLS	GP_Gibbs	-0.23	6/6	1/18
KSSNSVLYESQNKNSVA	TASTHEM	QQYAHLPLS	Ctrl	2.23	3/6	0/18
KLSQSVLYESRNKNSVA	NASMRES	QQYHRLPLS	GP_Gen	0.08	6/6	2/18
KVSQSMLYESRNKNSVA	NASTRES	QQYHRLPLM	GP_Gen	-0.23	6/6	2/18

For reference, 4 entries of the list once more:

| CDR-L1 | CDR-L2 | CDR-L3 | group | mean log10 Kd (nM) | replicates with signal | empty controls |
|---|---|---|---|---|---|---|
| QIQSESEVDYKDKNSMA | DSECKAA | QQYFRLPLM | En_Gibbs | 0.59 | 6/6 | 0/18 |
| KLSQSDLYESRNKNSVA | EASERES | QQYHRLPLS | GP_Gen | -0.07 | 6/6 | 0/18 |
| TLSQSMDMTSRNVNSVA | DLETRGN | QQYHRLPLS | En_HC | 0.14 | 6/6 | 0/18 |
| YVSIDAAEGWNQQSAVA | GVSYKEK | QQYYKLPLS | En_Gibbs | 2.52 | 3/6 | 0/18 |